# Measured values published in ChEMBL document CHEMBL4673253, “Discovery of EST73502, a Dual μ-Opioid Receptor Agonist and σ Receptor Antagonist Clinical Candidate for the Treatment of Pain” (J Med Chem, 2020).
# Protein sequences, listed by entry. Tags and fused reporters are not part of them.
# UniProt Q99720, whole entry, looked up: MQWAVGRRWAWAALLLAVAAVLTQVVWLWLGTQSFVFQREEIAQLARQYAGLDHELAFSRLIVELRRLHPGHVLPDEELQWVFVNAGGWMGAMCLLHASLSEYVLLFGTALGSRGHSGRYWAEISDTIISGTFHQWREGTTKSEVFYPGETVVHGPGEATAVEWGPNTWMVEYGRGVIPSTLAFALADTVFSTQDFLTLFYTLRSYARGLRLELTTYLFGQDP
# Target: Sigma non-opioid intracellular receptor 1 (Homo sapiens, UniProt Q99720)
# Details: hek293
smiles,measurement,value
O=C1N(c2cccnc2C(F)(F)F)CC2(CCN(CCc3ccccc3F)CC2)OC12CC2,Ki,58 nM
